# Yeast UUG start = modulators of start codon recognition fidelity in yeast; activity score, % at 18.7 µM; actives 0.13% (n = 350,000); S. cerevisiae UUG-firefly luciferase reporter, luminescence/redox ratio;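 active = replicate mean at a twofold rise or more, about +100% in these data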;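 note: firefly luciferase made from a UUG start codon reports start codon fidelity; reporter light over untreated wells divided by growth signal over untreated wells; some hits fall short of that in this replicate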
# LGR2 antag = inhibitors of bursicon-induced LGR2 CRE-luciferase signal, primary screen, cell-based, HEK293, CRE-luciferase reporter, bursicon stimulation; Drosophila bursicon receptor LGR2 (rickets); bursicon-stimulated, 4 h; inhibition, % at 9.99 µM; hit rate 0.35% among 380,000; AID 720647, 2013;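 active = drop in luminescence signal, shown as inhibition above about 50% in the replicate tests, limit read from the data, passing the limit was not always enough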;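 note: agonist challenge used bursicon conditioned medium at about half maximal strength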
# miR122 inh = miR-122 Renilla sensor signal increase in Huh7, primary screen, miR-122 inhibitor project, cell-based, single point, plate reader; Huh7 miR-122 Renilla luciferase sensor, 48 h; neutral wells = 0, positive control = 100; activation (reporter increase), % at 12.5 µM; hit rate 0.3% among 340,000;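 active = mean replicate activation score at least 90 and every replicate individually at or above 90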;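 note: higher luciferase means less miR-122 activity so hits act as miR-122 inhibitors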
# EWS-Fli inh = EWS/Fli-driven NR0B1 reporter inhibitors, primary screen, A673 cells, NR0B1 luciferase, luminescence, MLPCN library; viability-normalised; inhibition, % at 12.6 µM; hit rate 0.67% among 350,000; AID 651661, 2012;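 active = mean inhibition of at least 50% after viability correction, with every replicate also passing that limit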;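 note: firefly luciferase signal divided by Alamar Blue viability fluorescence both relative to DMSO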
# CFTR F508del cor = F508del CFTR correction, initial screen, CFBE line, single point | AID 720511, 2013 | activity (quench increase), % at 7.58 µM | CFBE cells, YFP halide quenching; stimulated with forskolin plus potentiator P3; % fluorescence drop versus neutral controls | hit rate 0.36% among 350,000;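 active = mean added fluorescence quench of at least 8% versus neutral control, with both replicates also reaching 8%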;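 note: cells transiently co-express mutant CFTR-F508del with the halide-sensitive YFP; corrector assay measuring rescue of mutant channel to the surface after 24 h compound exposure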
# PglD inh = C. jejuni PglD acetyltransferase inhibitors, primary screen, biochemical, DTNB colorimetric, single point; UDP-N-acetylbacillosamine N-acetyltransferase PglD (Campylobacter jejuni); purified PglD enzyme, DTNB colorimetric CoA detection; inhibition, % at 12.5 µM; hit rate 0.098% among 360,000; in the data active = inhibition above about 16%, passing the limit was not always enough
# * hit, by the source's call; · = not tested or not shown. The list is not random: actives were taken first. Their share in the collection is about 1.3%.
# Value order: Yeast UUG start, LGR2 antag, miR122 inh, EWS-Fli inh, CFTR F508del cor, PglD inh
1: O=C(O)Cc1cnc[nH]1
→ 6, -2, 0, -5, -1, 4
2: C[C@@H](N)Cc1cnc[nH]1
→ -3, -11, -2, -11, 11*, 0
3: O=c1c2ccccc2nc(/C=C/c2ccc([N+](=O)[O-])o2)n1-c1ccc(O)cc1
→ ·, 54*, 95*, 84*, -6, ·
4: COc1ccc(-c2ccc(OC)c(OC)c2OC)cc1
→ -5, -68, ·, 2, 12*, -6
5: COc1ccc(CN2C(=O)NC(=O)/C(=C/c3ccc(OC)c(OC)c3OC)C2=O)cc1
→ ·, 9, ·, 6, 1, ·
6: COC1CCC(OC2CC(C3(C)CCC4(CC(O)C(C)C(C(C)/C=C(\C)C(=O)C(C)CC(C)C(=O)O)O4)O3)OC3(OC(C4OC(O)(CO)C(C)CC4C)CC3C)C2C)OC1C (configuration not stated)
→ ·, ·, -2, 65*, -3, ·
7: CCc1c(C(=O)NN2C(=O)C3C4CCC(O4)C3C2=O)csc1C (configuration not stated)
→ -38, -2, -5, -3, ·, -1
8: O=C(O)[C@H]1[C@H](CO)[C@H]2Cn3c(ccc(-c4ccncc4)c3=O)[C@@H]1N2S(=O)(=O)c1ccccc1F
→ ·, -12, ·, 3, ·, 4
9: Ic1ccccc1CN[C@@H]1C2CCN(CC2)[C@@H]1C(c1ccccc1)c1ccccc1
→ 7, 70*, -2, 20, 0, 10
10: Fc1ccccc1CNC1CN2CCC1CC2 (configuration not stated)
→ ·, -27, ·, 6, -1, ·
11: Cc1cc2oc(=O)cc(-c3cc4ccccc4o3)c2cc1OC(=O)N(C)C
→ -13, -4, ·, 17, 3, -5
12: COc1ccc(C2=CC(c3ccc(OC)c(OC)c3)c3c(c4ccccc4oc3=O)O2)cc1OC (configuration not stated)
→ -23, 15, 7, 58*, 1, 5
13: COc1ccc(C2C(C#N)=C(N)Oc3c2c(=O)oc2ccccc32)cc1Cn1cc([N+](=O)[O-])cn1 (configuration not stated)
→ ·, ·, -6, ·, ·, ·
14: C/C=C/c1ccc(C2[C@@H]3CN(Cc4nccs4)C[C@H]2N3)cc1 (some centres not stated)
→ ·, -7, ·, 5, 2, ·
15: CCCCCC(=O)N[C@@H](c1ccccc1)[C@@H](O)C(=O)O[C@H]1C[C@@]2(O)[C@@H](OC(=O)c3ccccc3)C3[C@](C)(C(=O)[C@H](O)C(=C1C)C2(C)C)[C@@H](OC1OCC(O)C(O)C1O)C[C@H]1OC[C@@]31OC(C)=O (some centres not stated)
→ -7, -2, 11, 46, -1, 1
16: CC(=O)OC12COC1CC(O)C1(C)C(=O)C(O)C3=C(C)C(O)CC(O)(C(OC(=O)c4ccccc4)C21)C3(C)C (configuration not stated)
→ ·, -22, 18, 73*, 0, ·
17: CC(=O)O[C@@]12CO[C@@H]1C[C@@H](O)[C@@]1(C)C(=O)[C@H](O)C3=C(C)[C@@H](OC(=O)[C@H](O)[C@@H](NC(=O)c4ccccc4)c4ccccc4)C[C@@](O)([C@@H](OC(=O)c4ccccc4)C12)C3(C)C (some centres not stated)
→ 33, ·, 1, 55*, 0, -5
18: CC(=O)O[C@@]12CO[C@@H]1C[C@H](OC1OCC(O)C(O)C1O)[C@@]1(C)C(=O)[C@H](O)C3=C(C)[C@@H](OC(=O)[C@H](O)[C@@H](NC(=O)c4ccccc4)c4ccccc4)C[C@@](O)([C@@H](OC(=O)c4ccccc4)C12)C3(C)C (some centres not stated)
→ 14, 13, 1, 55*, 3, 0
19: CC(=O)OCC12CC(OC(=O)CC(C)C)C(C)=CC1OC1C(O)C(OC(C)=O)C2(C)C12CO2 (configuration not stated)
→ ·, 101*, -4, 44, -5, ·

# 3 structures already listed, sorted by count of non-hydrogen atoms, ascending:
# Value order: Yeast UUG start, LGR2 antag, miR122 inh, EWS-Fli inh, CFTR F508del cor, PglD inh
5: COc1ccc(CN2C(=O)NC(=O)/C(=C/c3ccc(OC)c(OC)c3OC)C2=O)cc1
→ ·, 9, ·, 6, 1, ·
16: CC(=O)OC12COC1CC(O)C1(C)C(=O)C(O)C3=C(C)C(O)CC(O)(C(OC(=O)c4ccccc4)C21)C3(C)C (configuration not stated)
→ ·, -22, 18, 73*, 0, ·
17: CC(=O)O[C@@]12CO[C@@H]1C[C@@H](O)[C@@]1(C)C(=O)[C@H](O)C3=C(C)[C@@H](OC(=O)[C@H](O)[C@@H](NC(=O)c4ccccc4)c4ccccc4)C[C@@](O)([C@@H](OC(=O)c4ccccc4)C12)C3(C)C (some centres not stated)
→ 33, ·, 1, 55*, 0, -5

# Assay outcomes from PubChem.
